{"source": "paper PMC11809403", "key": {"receptors in neutrophils": {"target": "receptors in neutrophils", "assay": "ELISA; titration ELISA of rStc1 with cardiomyocytes and with neutrophils; methods in the Supporting Information"}, "[1]": {"target": "receptors in cardiomyocytes", "assay": "ELISA; titration ELISA of rStc1 with cardiomyocytes and with neutrophils; methods in the Supporting Information"}}, "data": [{"substance": "recombinant Stc1 protein (rStc1) (from UniProt O55183 34-247) (ligand)", "values": [{"measurement": "Kd", "setting": "receptors in neutrophils", "value": 1.25, "unit": "nM"}, {"measurement": "Kd", "setting": "[1]", "value": 2.19, "unit": "nM"}]}]}
